Measured values taken from patent EP1200406B1, “CYCLIC AMIDES AND IMIDES HAVING SELECTIVE ANTAGONIST ACTIVITY AT ALPHA-1D ADRENERGIC RECEPTOR” (RECORDATI INDUSTRIA CHIMICA E FARMACEUTICA S.p.a., priority 1999, dated 2001).

Molecular target: T1, human recombinant α1a adrenoceptor (Homo sapiens, UniProt P35348)
T1 construct: expressed in transfected cells; host or cells: CHO cells (membranes)
T1 sequence (P35348 1-466): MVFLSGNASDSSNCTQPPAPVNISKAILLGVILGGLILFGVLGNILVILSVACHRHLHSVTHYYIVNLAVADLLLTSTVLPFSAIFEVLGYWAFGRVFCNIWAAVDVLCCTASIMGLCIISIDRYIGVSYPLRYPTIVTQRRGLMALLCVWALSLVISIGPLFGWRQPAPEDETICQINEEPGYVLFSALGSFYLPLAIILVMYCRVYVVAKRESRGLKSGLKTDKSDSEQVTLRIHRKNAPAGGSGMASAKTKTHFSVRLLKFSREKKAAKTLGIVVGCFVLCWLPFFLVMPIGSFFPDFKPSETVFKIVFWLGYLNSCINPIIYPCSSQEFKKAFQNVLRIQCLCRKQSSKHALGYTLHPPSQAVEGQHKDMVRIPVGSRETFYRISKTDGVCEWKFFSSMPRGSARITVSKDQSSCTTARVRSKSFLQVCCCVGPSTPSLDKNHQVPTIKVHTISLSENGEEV
Assay: Radioligand binding ([3H]prazosin) on membranes of CHO cells expressing cloned α1a adrenoceptor
Details: human cloned receptor, CHO cell membranes, 0.2 nM [3H]prazosin; read-out: Affinity (Ki) α1a
Method: The determination of affinity for cloned subtypes of human α1 adrenergic receptors was performed in membranes from CHO cells (chinese hamster ovary cells) transfected by electroporation with DNA expressing the genes encoding each α1-adrenoceptor subtype, namely α1a, α1b and α1d.. Cloning and stable expression of the human α1-adrenoceptor gene were performed as previously described (Testa et al., Pharmacol. Comm. 6, 79-86 (1995)). CHO cell membranes were incubated in […] Tris pH 7.4 with 0.2 nM [^3H]prazosin, in a final volume of 1.02 ml for 30 minutes at 25°C, in the absence or presence of competing drugs (1 pM-10 µM). Non-specific binding was determined in the presence of 10 µM phentolamine. Incubation was stopped by addition of ice-cold Tris buffer and rapid filtration through 0.2% polyethyleneimine pretreated Schleicher & Schuell GF52 filters. […] The HeLa cells were grown as monolayers in Dulbecco's modified Eagle's medium (DMEM), supplemented with 10% foetal calf serum and gentamicin (100 µg/ml), 5% CO2, at 37°C. […] The inhibition of specific binding of the radioligands by the drugs was analysed to estimate the IC50 value by using the non-linear curve-fitting programme Allfit (De Lean et al., Am. J. Physiol. 235, E97-E102 (1978)). […] Data were expressed as mean of Ki.

COc1ccccc1N1CCN(CCN2C(=O)CC3(CCCC3)CC2=O)CC1 [BMY-7378, reference compound]
Ki: 381 nM
